{"sequences": {"note": "Chains of the proteins cited; added tags and fusions are not shown.", "UniProt P23977, whole entry": "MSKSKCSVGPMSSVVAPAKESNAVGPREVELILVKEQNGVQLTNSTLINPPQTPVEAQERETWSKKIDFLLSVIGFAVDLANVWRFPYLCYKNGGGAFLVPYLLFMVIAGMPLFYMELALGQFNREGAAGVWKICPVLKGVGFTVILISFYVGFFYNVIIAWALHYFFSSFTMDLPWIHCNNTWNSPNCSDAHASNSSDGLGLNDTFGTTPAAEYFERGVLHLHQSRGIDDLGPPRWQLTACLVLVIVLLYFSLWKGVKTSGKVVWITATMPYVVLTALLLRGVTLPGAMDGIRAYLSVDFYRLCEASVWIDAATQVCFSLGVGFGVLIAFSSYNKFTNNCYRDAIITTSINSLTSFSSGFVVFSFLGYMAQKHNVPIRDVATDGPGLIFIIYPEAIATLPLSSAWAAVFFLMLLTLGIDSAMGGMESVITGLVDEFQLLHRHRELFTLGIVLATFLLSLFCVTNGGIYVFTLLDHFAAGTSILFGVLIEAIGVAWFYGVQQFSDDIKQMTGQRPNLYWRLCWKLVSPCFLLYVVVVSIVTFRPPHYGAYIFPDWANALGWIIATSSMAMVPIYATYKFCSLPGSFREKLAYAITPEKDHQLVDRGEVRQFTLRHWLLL"}, "source": "ChEMBL document CHEMBL1122866", "about": "“3-Phenyl-1-indanamines. Potential antidepressant activity and potent inhibition of dopamine, norepinephrine, and serotonin uptake” (J Med Chem, 1985)", "molecular_target": "Sodium-dependent dopamine transporter (Rattus norvegicus, UniProt P23977)", "assay": "Inhibition of dopamine uptake in rat synaptosomal fraction", "format": "functional", "data": [{"smiles": "CN(C)CCCC1(c2ccc(F)cc2)OCc2cc(C#N)ccc21", "note": "(stereo unspecified) [CITALOPRAM]", "values": [{"measurement": "IC50", "result": 41, "unit": "µM"}]}]}
